The test system of the data set is human T cells.

In turn, “dextran methacrylate (MA)-co-TMAEMA nanogels [Dex-NG DS 5.9]” returned a cell viability of more than 50%.
